From ChEMBL document CHEMBL3526117, “Evaluation of inhibition selectivity for human cytochrome P450 2A enzymes” (Drug Metab Dispos, 2012)

Key:
[1] = molecular target: T1, Cytochrome P450 2A6 (Homo sapiens, UniProt P11509); test: Binding affinity to CYP2A6 (unknown origin) assessed as type 2 interaction as increase in absorbance 431 to 432 nm and decrease in 406 to 412 nm; assay type: ADME
T1 sequence (P11509 whole entry): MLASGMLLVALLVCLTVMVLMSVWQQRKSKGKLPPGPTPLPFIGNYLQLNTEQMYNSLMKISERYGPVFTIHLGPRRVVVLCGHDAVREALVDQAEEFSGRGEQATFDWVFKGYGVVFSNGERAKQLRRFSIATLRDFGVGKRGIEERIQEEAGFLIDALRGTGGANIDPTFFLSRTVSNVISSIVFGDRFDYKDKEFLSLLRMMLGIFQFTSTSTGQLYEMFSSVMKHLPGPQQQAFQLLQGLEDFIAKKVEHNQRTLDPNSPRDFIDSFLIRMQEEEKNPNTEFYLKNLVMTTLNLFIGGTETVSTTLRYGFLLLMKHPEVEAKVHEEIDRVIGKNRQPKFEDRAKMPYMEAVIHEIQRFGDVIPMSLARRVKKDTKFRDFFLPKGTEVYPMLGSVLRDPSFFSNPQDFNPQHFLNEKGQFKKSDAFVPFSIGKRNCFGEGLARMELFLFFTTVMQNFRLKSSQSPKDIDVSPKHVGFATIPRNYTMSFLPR

[2] = molecular target: T1, Cytochrome P450 2A6; test: Mixed inhibition of CYP2A6 (unknown origin); assay type: ADME

Question: `N[C@@H]1C[C@H]1c1ccccc1.N[C@H]1C[C@@H]1c1ccccc1` (racemic) [TRANYLCYPROMINE] was tested. Which Kd [1] did it give?
Answer: 2000 nM

Question: What about the Ki [2] of the same compound?
Answer: 130 nM
